## scFv variants of Ab-14 (light chain) against a SARS-CoV-2 spike peptide

The target is the same throughout: PDVDLGDISGINAS, from the HR2 region of SARS-CoV-2 spike.

Ab-14 is the parent antibody, in scFv form: VH, then the linker GGGGSGGGGSGGGGS, then VL. The heavy chain is unchanged in all variants.
VH: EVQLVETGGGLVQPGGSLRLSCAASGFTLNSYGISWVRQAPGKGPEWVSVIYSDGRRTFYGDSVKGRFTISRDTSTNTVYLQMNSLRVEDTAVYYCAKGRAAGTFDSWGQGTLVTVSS
VL: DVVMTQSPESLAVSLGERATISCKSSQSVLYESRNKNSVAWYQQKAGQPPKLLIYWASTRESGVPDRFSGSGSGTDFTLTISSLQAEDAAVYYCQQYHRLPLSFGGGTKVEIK

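Phage display of a naive human antibody library on the peptide gave the parent. The variants were designed computationally from a first round of random CDR variants and then made and measured. Their group label is 14L_GP_Gibbs (GP: Gaussian process model; Gibbs: Gibbs sampling; a sequence that several methods proposed may carry one label only). In AlphaSeq, yeast of one mating type display the scFv and yeast of the other type display the target. Mating (16 h, 30 °C) was followed by selection of diploids and sequencing of their barcodes. Read counts were normalised to the haploid input and turned into Kd by a linear fit to BCL2-family pairs of known affinity, for each replicate. Each pool was mated in six replicate cultures.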

Each variant is given by its three light chain CDRs, as the data file delimits them; those of the parent are KSSQSVLYESRNKNSVA, WASTRES, QQYHRLPLS. Numbers give log10(Kd / nM), so 0 is 1 nM and 3 is 1 µM. Smaller is tighter. Of ten entries with the parent sequence, four were seen in most replicates (averages 0.34 to 2.37), three in one and three in none, so single entries are noisy. Values of this round are not directly comparable with the first-round values of the same sequences. The authors' rule: three or more of the six replicates give a measured affinity, fewer mean a poor binder. Empty control strains, which show no peptide, gave a signal in 4% of pairings with all light chain designs; the median was 2.64 and 95% of these signals were weaker than 1.59. No background was subtracted. The control count says in how many pairings with the empty strains this scFv gave a signal, with their mean in brackets.

{"CDR-L1": "KCAQWVDYESRNKNSVA", "CDR-L2": "QASTREQ", "CDR-L3": "QQYHRLPLS", "log10 Kd (nM) by replicate": "-0.30 / -0.34 / -0.18 / -0.04 / 0.44 / -0.27", "signal with controls": "0 of 18"}
{"CDR-L1": "KFMQSVPYESRNLNNVA", "CDR-L2": "HGSTRES", "CDR-L3": "QQYHRLPLS", "log10 Kd (nM) by replicate": "0.22 / -0.04 / 0.00 / -0.25 / 0.06 / 0.02", "signal with controls": "0 of 18"}
{"CDR-L1": "KISQSVLMESLNKNSVA", "CDR-L2": "HASTRCD", "CDR-L3": "QQYHRLPLS", "log10 Kd (nM) by replicate": "0.13 / -0.02 / 0.15 / 0.17 / -0.19 / 0.26", "signal with controls": "1 of 18 (2.49)"}
{"CDR-L1": "KVSQSVLGEQRAQNSVA", "CDR-L2": "EASTRES", "CDR-L3": "QQYHRLPLS", "log10 Kd (nM) by replicate": "0.09 / 0.16 / -0.33 / -0.05 / -0.23 / -0.54", "signal with controls": "0 of 18"}
{"CDR-L1": "KSSGSVLGEDWNSNSVA", "CDR-L2": "NASKRES", "CDR-L3": "QQYHRLPLS", "log10 Kd (nM) by replicate": "0.82 / 0.58 / 0.94 / 0.72 / 0.61 / 0.74", "signal with controls": "0 of 18"}
{"CDR-L1": "KISGSVMMLSRNKNSVA", "CDR-L2": "EATTRES", "CDR-L3": "QQYHRLPLS", "log10 Kd (nM) by replicate": "-0.10 / -0.36 / -0.37 / -0.42 / -0.28 / 0.19", "signal with controls": "0 of 18"}
{"CDR-L1": "KVSQSQCYEDRNKNNVA", "CDR-L2": "NASDRMS", "CDR-L3": "QQYHRLPLS", "log10 Kd (nM) by replicate": "-0.03 / 0.00 / -0.30 / -0.32 / -0.21 / 0.02", "signal with controls": "1 of 18 (2.26)"}
{"CDR-L1": "KVFPSELGEERNKMSVA", "CDR-L2": "QASTRES", "CDR-L3": "QQYHRLPLS", "log10 Kd (nM) by replicate": "1.89 / 1.69 / 0.91 / 1.40 / 1.26 / 1.61", "signal with controls": "0 of 18"}
{"CDR-L1": "KVSMLHWYESRNKNSVA", "CDR-L2": "EASTREQ", "CDR-L3": "QQYHRLPLS", "log10 Kd (nM) by replicate": "0.60 / 0.26 / 0.70 / 0.40 / 0.11 / 0.76", "signal with controls": "0 of 18"}
{"CDR-L1": "KLSMEVLMEQRNHNSVA", "CDR-L2": "SANTREE", "CDR-L3": "QQYHRLPLS", "log10 Kd (nM) by replicate": "0.40 / 0.32 / 0.10 / 0.09 / 0.06 / 0.49", "signal with controls": "1 of 18 (3.09)"}
{"CDR-L1": "KLSQSMPYEERNKNSVA", "CDR-L2": "NASQRMS", "CDR-L3": "QQYHRLPLS", "log10 Kd (nM) by replicate": "0.18 / 0.28 / 0.12 / -0.06 / 0.10 / -0.02", "signal with controls": "0 of 18"}
{"CDR-L1": "KLRFSVMLESRNKNSVA", "CDR-L2": "SASTRES", "CDR-L3": "QQYHRLPLS", "log10 Kd (nM) by replicate": "-0.22 / -0.20 / -0.24 / -0.21 / -0.18 / 0.20", "signal with controls": "0 of 18"}
{"CDR-L1": "KLSKMVMYESRNKNSVA", "CDR-L2": "SASTRYE", "CDR-L3": "QQYHRLPLS", "log10 Kd (nM) by replicate": "0.61 / 0.32 / 0.42 / 0.31 / 0.65 / 0.71", "signal with controls": "3 of 18 (2.74)"}
{"CDR-L1": "KFSQEMLYESRNKNSVA", "CDR-L2": "NASCRES", "CDR-L3": "QQYWRLPLS", "log10 Kd (nM) by replicate": "0.17 / 0.33 / 0.18 / -0.09 / -0.05 / 0.23", "signal with controls": "0 of 18"}
{"CDR-L1": "KYQELEPYESRNKNSVA", "CDR-L2": "NASTRET", "CDR-L3": "QQYHRLPLS", "log10 Kd (nM) by replicate": "0.00 / 0.21 / -0.06 / 0.23 / -0.08 / 0.25", "signal with controls": "0 of 18"}
{"CDR-L1": "KMSQSEDYEDRNCNAVA", "CDR-L2": "SASQREE", "CDR-L3": "QQYHRLPLS", "log10 Kd (nM) by replicate": "0.30 / 0.24 / 0.25 / 0.00 / 0.28 / 0.32", "signal with controls": "0 of 18"}
{"CDR-L1": "KFMQMVWQESRNKNSVA", "CDR-L2": "NASTRMQ", "CDR-L3": "QQYHRLPLS", "log10 Kd (nM) by replicate": "0.20 / 0.13 / 0.03 / -0.12 / -0.08 / 0.28", "signal with controls": "0 of 18"}
{"CDR-L1": "KISQSWGYESRNSNSVA", "CDR-L2": "EASTRES", "CDR-L3": "QDYHRLPLS", "log10 Kd (nM) by replicate": "0.10 / 0.31 / -0.02 / -0.04 / 0.39 / 0.33", "signal with controls": "1 of 18 (2.68)"}
{"CDR-L1": "KLSGSVMMLSRNDNSVA", "CDR-L2": "DASTRES", "CDR-L3": "QQYHRLPLS", "log10 Kd (nM) by replicate": "-0.05 / -0.16 / -0.11 / -0.39 / -0.37 / -0.49", "signal with controls": "0 of 18"}
{"CDR-L1": "KYSFSYLNESRNKNSVA", "CDR-L2": "EASTRES", "CDR-L3": "QQYHRLPLS", "log10 Kd (nM) by replicate": "0.69 / 0.69 / 0.30 / 0.11 / 0.29 / 0.60", "signal with controls": "2 of 18 (3.23)"}
{"CDR-L1": "KLSMSQLYEWRNMNSVA", "CDR-L2": "NASTREE", "CDR-L3": "QQYHRLPLS", "log10 Kd (nM) by replicate": "0.03 / -0.30 / -0.25 / -0.33 / -0.20 / 0.01", "signal with controls": "0 of 18"}
{"CDR-L1": "KLRTSVPYESRNKNSVA", "CDR-L2": "SASTRES", "CDR-L3": "QQYHRLPLS", "log10 Kd (nM) by replicate": "-0.03 / -0.26 / -0.01 / -0.50 / 0.03 / 0.69", "signal with controls": "0 of 18"}
{"CDR-L1": "KLMQLGHYGSRNANNVA", "CDR-L2": "NASQREQ", "CDR-L3": "QQYHRLPLS", "log10 Kd (nM) by replicate": "-0.10 / -0.09 / 0.08 / -0.26 / 0.10 / 0.01", "signal with controls": "0 of 18"}

Excerpt, the final 2 entries:

{"CDR-L1": "KLRTSVPYESRNKNSVA", "CDR-L2": "SASTRES", "CDR-L3": "QQYHRLPLS", "log10 Kd (nM) by replicate": "-0.03 / -0.26 / -0.01 / -0.50 / 0.03 / 0.69", "signal with controls": "0 of 18"}
{"CDR-L1": "KLMQLGHYGSRNANNVA", "CDR-L2": "NASQREQ", "CDR-L3": "QQYHRLPLS", "log10 Kd (nM) by replicate": "-0.10 / -0.09 / 0.08 / -0.26 / 0.10 / 0.01", "signal with controls": "0 of 18"}

Values reported by Li et al. 2023, doi:10.1038/s41467-023-39022-2 (FLAb copy).